Antibody variant affinities, Ab-14 light chain, assay 1

Target: peptide PDVDLGDISGINAS, taken from heptad repeat 2 (HR2) of SARS-CoV-2 spike.

Each scFv is VH, a 15-residue (Gly4Ser)3 linker, VL, as in the parent Ab-14, and differs from it in the CDRs of the light chain only.
VH: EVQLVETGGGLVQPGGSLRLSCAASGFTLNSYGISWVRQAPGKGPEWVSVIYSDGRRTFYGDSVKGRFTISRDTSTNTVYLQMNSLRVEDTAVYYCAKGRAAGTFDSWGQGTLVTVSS
VL: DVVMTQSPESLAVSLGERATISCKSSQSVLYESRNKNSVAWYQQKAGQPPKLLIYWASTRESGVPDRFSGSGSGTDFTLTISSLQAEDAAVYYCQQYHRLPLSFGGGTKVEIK

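The library (AAYL50) carries one to three amino acid substitutions per variant, with no insertions or deletions. Affinity was read by AlphaSeq, a pooled yeast mating assay with surface-displayed partners. Pairs that bind mate more often; barcode pairs of the diploids are counted by sequencing. Scores were corrected for input abundance and mapped to Kd with protein pairs of known affinity run in the same pool. There are three technical replicates.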

Substitutions are numbered in sequence along the VL above, starting at 1 (not Kabat). Every variant below is changed at S28 of the VL (sequential numbering). Kd is apparent (estimated from mating counts) and averaged on the log scale over replicates with a signal. Smaller is tighter. "nd" means that the variant was in the library but no mating with the target was seen in any replicate; the authors take this as a sign of poor binding, and no number exists. In this assay the parent's reference entry averaged 4.4 nM; its copy inside this library read 48 nM.

* S28V/W56F/R60N: 48 µM (3 of 3 replicates; controls 6 of 9)
* S28Q/N35M/R99E: 63 nM (3 of 3 replicates; controls 1 of 9)
* S28P/A40H/R99E: 1.8 µM (1 of 3 replicates; controls 1 of 9)
* S28V/T59Q/S103H: 380 nM (3 of 3 replicates; controls 1 of 9)
* S28W/S38V: nd (0 of 3 replicates; controls 1 of 9)
* S28E/N37Y/Q96I: 4.5 µM (2 of 3 replicates; controls 1 of 9)
* S28M/E61Q/S62P: 24 nM (3 of 3 replicates; controls 0 of 9)
* S28Y/S58T/Y97Q: nd (0 of 3 replicates; controls 2 of 9)
* K24R/S28D: 5.8 nM (3 of 3 replicates; controls 1 of 9)
* S25K/S28Y/A57Y: nd (0 of 3 replicates; controls 1 of 9)
* S28G/N37Q/R60G: nd (0 of 3 replicates; controls 2 of 9)
* S28N/S58M/P101E: 130 nM (3 of 3 replicates; controls 0 of 9)
* K24Y/S28F/S58D: 280 nM (3 of 3 replicates; controls 2 of 9)
* S28E/W56Y/E61M: 59 nM (3 of 3 replicates; controls 1 of 9)
* S28I/S58F/L100C: nd (0 of 3 replicates; controls 0 of 9)
* S28P/L30P/N37Y: 4.0 nM (3 of 3 replicates; controls 1 of 9)
* S28F/E61I/Q96Y: nd (0 of 3 replicates; controls 0 of 9)
* S28Q/A40E/A57Q: nd (0 of 3 replicates; controls 1 of 9)
* S28R/Y31P/H98T: 760 nM (3 of 3 replicates; controls 1 of 9)
* S28K/T59V/R99S: 11 nM (3 of 3 replicates; controls 2 of 9)
* S28E/S58P/R99Q: 58 µM (2 of 3 replicates; controls 5 of 9)
* K24A/S28V/K36R: nd (0 of 3 replicates; controls 0 of 9)
* S25V/S28K/L30N: 1.2 nM (3 of 3 replicates; controls 5 of 9)
* S25F/S28F/S58K: 320 nM (3 of 3 replicates; controls 2 of 9)
* S26V/S28M/T59W: nd (0 of 3 replicates; controls 0 of 9)
* S28P/Q95D/R99Y: nd (0 of 3 replicates; controls 0 of 9)
* S28P/L30A/T59L: 7.6 nM (3 of 3 replicates; controls 2 of 9)
* S28M/A40I/E61L: nd (0 of 3 replicates; controls 0 of 9)
* S28V/N35P/R99G: 4.8 µM (1 of 3 replicates; controls 1 of 9)
* S28H/N35P/S38C: 3.9 µM (1 of 3 replicates; controls 0 of 9)
* S26V/S28M/L102P: 570 nM (3 of 3 replicates; controls 3 of 9)
* S25P/S28I/S58T: 27 nM (3 of 3 replicates; controls 0 of 9)
* S28T/L100W/P101F: 140 µM (3 of 3 replicates; controls 5 of 9)
* S28I/Y31W/K36L: 30 nM (3 of 3 replicates; controls 2 of 9)
* S28R/W56M/R99A: nd (0 of 3 replicates; controls 0 of 9)
* S28N/Q96M/P101I: 270 nM (1 of 3 replicates; controls 1 of 9)

The opening 2 entries, copied out:

- S28V/W56F/R60N = 48 µM (3 of 3 replicates; controls 6 of 9)
- S28Q/N35M/R99E = 63 nM (3 of 3 replicates; controls 1 of 9)

Empty control strains, which show no peptide, gave a signal in 18% of pairings with library AAYL50; the median was 15 µM and 95% of these signals were weaker than 970 nM. No background was subtracted. The control count says in how many pairings with the empty strains this scFv gave a signal.

Reference: Engelhart et al. 2022, doi:10.1038/s41597-022-01779-4. File: FLAb, binding data.